Test system: striatal AC
Test: D1 or D2 receptor agonist-stimulated AC activity in striatal membrane preparations
Format: biochemical, mouse
Conditions: 10 µM

**Q.** How did the “inhibition of SKF38393-stimulated AC activity, decrease” value turn out when `CCCN1CCC[C@@H]2Cc3n[nH]cc3C[C@H]21` [Quinpirole] was run?
**A.** 13.5±1.1%
